These results are taken from PubChem BioAssay (NCI).

Test systems include NCI-H23 lung; NCI-H226 lung; NCI-H322M lung; HOP-62 NSCLC; NCI-H460 lung; NCI-H522 lung; A549/ATCC NSCLC; 786-0 renal; COLO 205 colon; DU-145 prostate; K-562 leukemia; MALME-3M melanoma; MDA-MB-231 breast; RXF 393 renal; SF-268 CNS; SF-295 CNS; SF-539 CNS; UACC-257 melanoma; M14 melanoma; HOP-92 NSCLC.
Common to all, as to assay: NCI-60 one-dose screen, 48 h (100 = growth as untreated, 0 = no growth, -100 = all killed)
Holding throughout (conditions): 10 µM

Only a part is listed here, and it is no random draw.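 48-hour exposure, single concentration, 96-well plates; percent growth endpoint where 0 means no net growth. Active: below 10.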 Calls of active or inactive are those of the source.

For `CCCCCCCOP(=O)(CC)OCCCCCCC`, the growth in the test with NCI-H23 lung was inactive: 103%; in the test with NCI-H226 lung, inactive: 91.1%; with NCI-H322M lung, inactive: 99.5%; in the test on HOP-62 NSCLC, inactive: 98.3%; in the test on NCI-H460 lung, inactive: 102%; with NCI-H522 lung, inactive: 91.3%. Further, the growth is inactive: 101% in the test on A549/ATCC NSCLC; inactive: 100% in the test with 786-0 renal; inactive: 103% in the test with COLO 205 colon; inactive: 107% in the test on DU-145 prostate; inactive: 90.2% in the test with K-562 leukemia; inactive: 99% with MALME-3M melanoma. Moreover, the growth was inactive: 93.2% with MDA-MB-231 breast; inactive: 101% in the test with RXF 393 renal; inactive: 106% with SF-268 CNS; inactive: 92.4% in the test on SF-295 CNS; inactive: 99.8% in the test with SF-539 CNS; inactive: 94.8% with UACC-257 melanoma. Further, the growth with M14 melanoma is inactive: 103%.

Turning to `O=[N+]([O-])c1cc([N+](=O)[O-])c(NCCO)c([N+](=O)[O-])c1`, the growth with NCI-H23 lung is inactive: 86.4%; with NCI-H226 lung it was inactive: 87.7%; in the test with NCI-H322M lung, inactive: 100%; with HOP-62 NSCLC it was inactive: 121%; with NCI-H460 lung, inactive: 96.1%; with NCI-H522 lung, inactive: 27.3%. In addition, the growth in the test with A549/ATCC NSCLC is inactive: 89.7%; with 786-0 renal it was inactive: 106%; with COLO 205 colon, inactive: 94.8%; in the test with DU-145 prostate, inactive: 70.9%; in the test on K-562 leukemia, inactive: 62%; with MALME-3M melanoma it was inactive: 87.5%. Besides, the growth was inactive: 93.9% with MDA-MB-231 breast; inactive: 87.7% in the test with RXF 393 renal; inactive: 83.6% with SF-268 CNS; inactive: 87.6% with SF-295 CNS; inactive: 69.9% in the test on SF-539 CNS; inactive: 74.5% in the test on UACC-257 melanoma. Also, the growth with M14 melanoma is inactive: 94.7%.

For `O=[N+]([O-])c1cc([N+](=O)[O-])c(Nc2ccc(Cl)cc2)c([N+](=O)[O-])c1`, the growth in the test on NCI-H23 lung is inactive: 42.6%; with NCI-H226 lung, inactive: 44%; in the test on NCI-H322M lung it was inactive: 32.2%; with HOP-62 NSCLC, inactive: 25.3%; in the test on NCI-H460 lung it was active: 7.84%; in the test with NCI-H522 lung, active: -19.9%. The growth in the test on A549/ATCC NSCLC is inactive: 45.2%; in the test with 786-0 renal, inactive: 31.9%; with COLO 205 colon it was active: -10.1%; in the test on DU-145 prostate, inactive: 77.6%; in the test on K-562 leukemia it was active: 5.46%; in the test on MALME-3M melanoma, inactive: 56%. The growth in the test with MDA-MB-231 breast is inactive: 52.2%; in the test on RXF 393 renal it was inactive: 47.2%; in the test with SF-268 CNS, inactive: 22.8%; in the test with SF-539 CNS it was inactive: 12.4%; with UACC-257 melanoma it was inactive: 59.1%; with M14 melanoma it was inactive: 65.8%.

Regarding `CP(=O)(OCCCCl)N(CCCl)CCCl` (stereo not given), the growth in the test with NCI-H23 lung was inactive: 104%; with NCI-H226 lung it was inactive: 96%; in the test on NCI-H322M lung, inactive: 110%; in the test with HOP-62 NSCLC, inactive: 106%; in the test on NCI-H460 lung it was inactive: 115%; in the test with HOP-92 NSCLC, inactive: 99.3%. In addition, the growth was inactive: 102% in the test on NCI-H522 lung; inactive: 93.7% in the test on A549/ATCC NSCLC; inactive: 105% in the test with 786-0 renal; inactive: 116% in the test on COLO 205 colon; inactive: 115% in the test on DU-145 prostate; inactive: 100% in the test with K-562 leukemia. In addition, the growth was inactive: 101% with MALME-3M melanoma; inactive: 111% in the test on MDA-MB-231 breast; inactive: 114% in the test on RXF 393 renal; inactive: 111% with SF-268 CNS; inactive: 101% with SF-539 CNS; inactive: 89.7% in the test on UACC-257 melanoma. In the test on M14 melanoma, the growth was inactive: 105%.

`CP(=S)(Cl)N(CCCl)CCCl` (stereo not given): the growth with NCI-H23 lung is inactive: 108%; in the test with NCI-H226 lung, inactive: 97%; in the test with NCI-H322M lung, inactive: 100%; in the test with HOP-62 NSCLC it was inactive: 102%; in the test with NCI-H460 lung, inactive: 106%; in the test with HOP-92 NSCLC, inactive: 86.8%. In addition, the growth with NCI-H522 lung was inactive: 84.6%; in the test with A549/ATCC NSCLC, inactive: 93.3%; with 786-0 renal it was inactive: 103%; in the test with COLO 205 colon, inactive: 121%; with DU-145 prostate, inactive: 113%; in the test with K-562 leukemia, inactive: 107%. The growth in the test on MALME-3M melanoma was inactive: 109%; with MDA-MB-231 breast, inactive: 103%; with RXF 393 renal it was inactive: 99.6%; in the test on SF-268 CNS, inactive: 112%; with SF-539 CNS it was inactive: 90.2%; in the test on UACC-257 melanoma it was inactive: 97.3%. In addition, the growth in the test on M14 melanoma is inactive: 100%.

Take `Clc1ccccc1SCCBr`: the growth in the test on NCI-H23 lung is inactive: 99.7%; in the test with NCI-H226 lung, inactive: 99.8%; in the test on NCI-H322M lung it was inactive: 104%; in the test on HOP-62 NSCLC, inactive: 103%; in the test with NCI-H460 lung, inactive: 100%; with HOP-92 NSCLC, inactive: 92.3%. Moreover, the growth with NCI-H522 lung was inactive: 100%; with A549/ATCC NSCLC it was inactive: 104%; with 786-0 renal, inactive: 103%; in the test on DU-145 prostate, inactive: 103%; in the test with K-562 leukemia, inactive: 110%; in the test with MALME-3M melanoma, inactive: 96.6%. For the same compound, the growth in the test with RXF 393 renal was inactive: 106%; in the test on SF-268 CNS it was inactive: 96.3%; in the test on SF-295 CNS, inactive: 107%; in the test with SF-539 CNS, inactive: 107%; in the test on UACC-257 melanoma, inactive: 105%; in the test with M14 melanoma, inactive: 103%.

Regarding `CCN(CC)CCOC(=O)C(O)(c1cc(C)cc(C)c1)c1cc(C)cc(C)c1`, the growth in the test on NCI-H23 lung is inactive: 103%; with NCI-H226 lung, inactive: 95.9%; in the test on NCI-H322M lung, inactive: 102%; in the test with HOP-62 NSCLC, inactive: 85.2%; with NCI-H460 lung, inactive: 100%; in the test with HOP-92 NSCLC, inactive: 72.1%. The growth is inactive: 70.2% in the test with NCI-H522 lung; inactive: 84.1% in the test on A549/ATCC NSCLC; inactive: 97.5% with 786-0 renal; inactive: 107% in the test with DU-145 prostate; inactive: 97.9% with K-562 leukemia; inactive: 111% in the test with MALME-3M melanoma. Also, the growth in the test with MDA-MB-231 breast was inactive: 98%; in the test on RXF 393 renal it was inactive: 108%; with SF-268 CNS, inactive: 103%; in the test on SF-295 CNS, inactive: 91.1%; in the test with SF-539 CNS it was inactive: 97.1%; with UACC-257 melanoma it was inactive: 86.6%. Besides, in the test on M14 melanoma, the growth is inactive: 102%.

As for `O=[N+]([O-])c1ccc(OP2(=O)COCCO2)cc1` (stereo not given), the growth was inactive: 101% in the test with NCI-H23 lung; inactive: 102% in the test with NCI-H226 lung; inactive: 114% in the test on NCI-H322M lung; inactive: 101% with HOP-62 NSCLC; inactive: 107% in the test with NCI-H460 lung; inactive: 106% in the test on NCI-H522 lung. Also, the growth was inactive: 148% in the test with A549/ATCC NSCLC; inactive: 103% in the test with 786-0 renal; inactive: 150% in the test on COLO 205 colon; inactive: 112% with DU-145 prostate; inactive: 100% in the test with K-562 leukemia; inactive: 140% in the test on MALME-3M melanoma. The growth in the test with MDA-MB-231 breast is inactive: 101%; in the test with RXF 393 renal it was inactive: 431%; with SF-268 CNS, inactive: 107%; in the test on SF-295 CNS, inactive: 96.1%; in the test on SF-539 CNS it was inactive: 105%; in the test on UACC-257 melanoma, inactive: 111%. For the same compound, the growth in the test with M14 melanoma was inactive: 107%.
